Assays:
CYP 1A2 = CYP 1A2 (Homo sapiens (Human), UniProt P05177); assay: CYP inhibition in human liver microsomes; assay type: in vitro ADME
Method: (§1) To evaluate the in vitro CYP inhibition of BNS808 and BNS822, the compounds were tested in human liver microsomes that are rich in drug metabolizing enzymes, including CYPs 1A2, 2C9, 2C19, 2D6, 3A4.

Chains of the proteins cited; added tags and fusions are not shown.
UniProt P05177, whole entry: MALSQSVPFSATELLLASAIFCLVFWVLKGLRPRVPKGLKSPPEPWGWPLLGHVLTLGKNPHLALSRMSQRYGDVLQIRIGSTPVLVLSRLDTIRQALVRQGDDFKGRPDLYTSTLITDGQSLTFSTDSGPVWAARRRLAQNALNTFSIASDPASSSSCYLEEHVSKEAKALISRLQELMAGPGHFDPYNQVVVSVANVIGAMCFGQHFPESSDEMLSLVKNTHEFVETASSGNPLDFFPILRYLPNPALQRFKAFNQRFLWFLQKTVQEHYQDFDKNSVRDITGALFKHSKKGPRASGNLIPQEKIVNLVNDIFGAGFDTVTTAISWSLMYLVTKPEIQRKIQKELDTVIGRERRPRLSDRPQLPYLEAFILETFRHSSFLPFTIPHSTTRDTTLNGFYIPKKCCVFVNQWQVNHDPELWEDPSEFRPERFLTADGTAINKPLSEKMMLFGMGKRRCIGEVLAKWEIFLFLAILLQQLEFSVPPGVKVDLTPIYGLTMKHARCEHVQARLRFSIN
UniProt P33261, whole entry: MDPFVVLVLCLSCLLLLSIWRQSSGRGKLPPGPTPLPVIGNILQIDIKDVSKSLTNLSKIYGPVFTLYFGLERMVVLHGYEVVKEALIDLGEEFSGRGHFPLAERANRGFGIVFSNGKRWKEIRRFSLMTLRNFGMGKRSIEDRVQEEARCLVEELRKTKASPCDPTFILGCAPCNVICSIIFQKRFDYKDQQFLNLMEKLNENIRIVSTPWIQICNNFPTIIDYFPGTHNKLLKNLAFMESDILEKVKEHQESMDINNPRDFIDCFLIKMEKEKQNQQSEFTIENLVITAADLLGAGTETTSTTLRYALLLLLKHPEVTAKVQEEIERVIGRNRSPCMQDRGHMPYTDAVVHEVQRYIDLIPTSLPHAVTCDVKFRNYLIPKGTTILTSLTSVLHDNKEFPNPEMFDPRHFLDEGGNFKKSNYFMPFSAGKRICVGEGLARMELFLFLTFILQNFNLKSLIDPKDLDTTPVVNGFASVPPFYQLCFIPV

CYP2C19 = CYP2C19 (Homo sapiens (Human), UniProt P33261); assay: CYP inhibition in human liver microsomes; assay type: in vitro ADME; conditions: CYP isozyme 2C19, standard inhibitor
Method: as §1

SMILES | % Inhibition (CYP 1A2) | % Inhibition (CYP2C19)
O=c1cc(-c2ccccc2)oc2c1ccc1ccccc12 [a-Naphthoflavone, reference compound] | 90.0% | –
CCC1(c2ccccc2)NC(=O)N(Cc2ccccc2)C1=O (single isomer, unassigned; (+)) [(+)-N-3-benzyl-nirvanol, reference compound] | – | 84.1%
